Measured values as given in ChEMBL document CHEMBL5113516, “2-(Fluoromethoxy)-4'-(S-methanesulfonimidoyl)-1,1'-biphenyl (UCM-1306), an Orally Bioavailable Positive Allosteric Modulator of the Human Dopamine D1 Receptor for Parkinson's Disease” (J Med Chem, 2022).

Sequences of proteins named here, by UniProt entry; tags and fusion partners are left off.
UniProt P21728, whole entry: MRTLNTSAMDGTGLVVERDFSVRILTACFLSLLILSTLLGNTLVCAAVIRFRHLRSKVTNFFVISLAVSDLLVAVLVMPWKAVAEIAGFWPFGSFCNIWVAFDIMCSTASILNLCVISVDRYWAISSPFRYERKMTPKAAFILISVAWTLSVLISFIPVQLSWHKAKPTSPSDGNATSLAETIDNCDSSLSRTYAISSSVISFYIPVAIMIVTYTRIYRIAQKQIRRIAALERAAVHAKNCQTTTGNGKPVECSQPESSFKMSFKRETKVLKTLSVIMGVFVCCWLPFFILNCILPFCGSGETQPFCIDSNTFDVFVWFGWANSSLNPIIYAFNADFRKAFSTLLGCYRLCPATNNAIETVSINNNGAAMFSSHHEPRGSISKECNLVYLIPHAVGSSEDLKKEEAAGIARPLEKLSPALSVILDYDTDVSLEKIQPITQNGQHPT

Target: D(1A) dopamine receptor (Homo sapiens) (UniProt P21728)
Test: Positive allosteric modulation of D1R expressed in human SK-N-MC cells assessed as potentiation of DA-induced cAMP production pretreated with compound for 15 mins followed by dopamine addition measured after 15 mins by HTRF assay relative to control
Assay type: functional, cell-based
Settings: filed as positive allosteric modulator, dose 0.1-10 µM, time 30.0 min
Outline: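 Human SK-N-MC neuroblastoma cells with endogenous D1R, seeded at 1×10^4 cells/well in Opti-MEM with 500 μM IBMX. Preincubated with 10 μM compound for 15 min at 25 °C, then dopamine concentration–response for 15 min at 25 °C. Lysed and cAMP read by HTRF. Change in dopamine Emax used; >20% potentiation taken as a potential PAM.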

SMILES: O=Cc1ccc(-c2ccccc2OCF)cc1
- Emax: 82%
